Reference: patent US20210002231A1 (Centre National de la Recherche Scientifique, priority 2018, published 2021)

Chains of the proteins cited; added tags and fusions are not shown. Lines headed by an entry give the natural chain unless they say otherwise; changes in a name come on top.
UniProt Q9GZQ6: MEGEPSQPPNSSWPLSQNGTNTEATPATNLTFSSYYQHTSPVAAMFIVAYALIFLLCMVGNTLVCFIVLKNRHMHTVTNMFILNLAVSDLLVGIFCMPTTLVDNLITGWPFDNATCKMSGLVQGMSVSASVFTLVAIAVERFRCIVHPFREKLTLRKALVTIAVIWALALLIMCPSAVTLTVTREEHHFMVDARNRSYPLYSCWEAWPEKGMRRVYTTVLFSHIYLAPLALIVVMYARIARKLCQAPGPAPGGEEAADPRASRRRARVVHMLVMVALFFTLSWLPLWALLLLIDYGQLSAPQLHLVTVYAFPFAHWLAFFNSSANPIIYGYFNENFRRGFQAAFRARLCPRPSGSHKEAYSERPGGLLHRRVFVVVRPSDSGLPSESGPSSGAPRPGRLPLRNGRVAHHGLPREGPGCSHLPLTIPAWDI

Target: human NPFF1R (Homo sapiens, UniProt Q9GZQ6)
Test: Radioligand competition binding with [125I]-1-DMe-NPFF
Set-up: expressed in transfected cells; HEK293-Glo20F cells (cAMP)

Cc1cc(O)cc(C)c1C[C@H](N)C(=O)N[C@H](CCCNC(=N)N)C(=O)N[C@H]1Cc2ccccc2CN(CCC(=O)N[C@@H](CCCN2CCCCC2)C(=O)N[C@@H](Cc2ccccc2)C(N)=O)C1=O [KGFF08, H-Dmt-D-Arg-Aba-β-Ala-Apa-Phe-NH2]
Ki: 136 ± 26 nM
